Data as given in patent publication US5739291A, “Glutamate receptor antibodies” (The Salk Institute For Biological Studies, priority 1995, dated 1998).

Sequences of proteins named here, by UniProt entry; tags and fusion partners are left off. Residues count along the entry.
UniProt P19492, 23-888: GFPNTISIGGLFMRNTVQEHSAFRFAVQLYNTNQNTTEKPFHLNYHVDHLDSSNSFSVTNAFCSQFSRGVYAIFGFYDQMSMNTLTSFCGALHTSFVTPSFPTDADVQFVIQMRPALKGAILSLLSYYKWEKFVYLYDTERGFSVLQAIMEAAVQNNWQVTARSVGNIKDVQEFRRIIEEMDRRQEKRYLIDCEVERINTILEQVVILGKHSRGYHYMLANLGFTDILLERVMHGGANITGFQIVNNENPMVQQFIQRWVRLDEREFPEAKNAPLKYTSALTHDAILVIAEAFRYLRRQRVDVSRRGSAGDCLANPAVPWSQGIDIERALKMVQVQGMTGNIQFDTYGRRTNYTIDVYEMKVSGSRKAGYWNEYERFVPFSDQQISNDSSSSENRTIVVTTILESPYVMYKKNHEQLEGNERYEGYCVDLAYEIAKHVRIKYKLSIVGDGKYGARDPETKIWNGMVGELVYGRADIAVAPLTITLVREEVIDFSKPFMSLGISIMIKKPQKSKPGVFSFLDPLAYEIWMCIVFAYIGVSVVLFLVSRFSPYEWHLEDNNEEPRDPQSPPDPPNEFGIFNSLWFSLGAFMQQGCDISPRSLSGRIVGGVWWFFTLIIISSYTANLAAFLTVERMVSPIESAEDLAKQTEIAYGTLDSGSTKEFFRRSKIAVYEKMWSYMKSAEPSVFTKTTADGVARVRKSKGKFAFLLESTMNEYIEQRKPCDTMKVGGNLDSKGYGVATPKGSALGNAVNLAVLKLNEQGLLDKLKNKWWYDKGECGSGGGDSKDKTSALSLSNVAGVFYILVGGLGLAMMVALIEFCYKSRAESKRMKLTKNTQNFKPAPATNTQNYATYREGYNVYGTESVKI
UniProt P19490, 19-907 S67T/A248R/S789T: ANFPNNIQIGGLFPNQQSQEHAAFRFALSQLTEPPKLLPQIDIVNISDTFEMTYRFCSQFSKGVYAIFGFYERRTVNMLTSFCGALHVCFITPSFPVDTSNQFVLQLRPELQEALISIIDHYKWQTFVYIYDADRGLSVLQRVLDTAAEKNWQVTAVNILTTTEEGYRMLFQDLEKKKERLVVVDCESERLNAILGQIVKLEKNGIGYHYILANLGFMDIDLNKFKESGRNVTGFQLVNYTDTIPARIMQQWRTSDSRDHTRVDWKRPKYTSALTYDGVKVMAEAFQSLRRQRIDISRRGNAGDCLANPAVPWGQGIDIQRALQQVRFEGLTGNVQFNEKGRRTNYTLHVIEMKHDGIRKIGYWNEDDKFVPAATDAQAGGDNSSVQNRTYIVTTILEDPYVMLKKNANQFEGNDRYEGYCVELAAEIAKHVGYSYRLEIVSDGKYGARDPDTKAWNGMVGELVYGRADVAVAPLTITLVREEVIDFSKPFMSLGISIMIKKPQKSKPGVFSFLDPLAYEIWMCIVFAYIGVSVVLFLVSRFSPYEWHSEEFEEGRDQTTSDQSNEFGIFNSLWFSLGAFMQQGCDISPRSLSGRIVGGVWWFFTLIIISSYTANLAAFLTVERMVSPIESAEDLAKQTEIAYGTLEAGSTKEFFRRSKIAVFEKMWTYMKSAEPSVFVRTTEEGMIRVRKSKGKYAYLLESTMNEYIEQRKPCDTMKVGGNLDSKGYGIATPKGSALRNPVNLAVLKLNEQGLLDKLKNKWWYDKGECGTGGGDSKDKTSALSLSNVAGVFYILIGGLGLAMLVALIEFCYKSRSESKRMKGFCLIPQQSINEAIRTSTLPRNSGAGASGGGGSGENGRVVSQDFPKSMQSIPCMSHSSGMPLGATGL

What was measured:
GluR3 = GluR3 (Rattus norvegicus, UniProt P19492); assay: cell-based; format: cell-based; settings: for response to agonist: GLU 100 μM, NMDA 30 μM plus 10 μM glycine, APB 50 μM, 2 ng RNA, 3 days
GluR1 = GluR1 (Rattus norvegicus, UniProt P19490); assay: Voltage-clamp recording in Xenopus oocytes injected with GluR1 in vitro RNA; settings: for response to agonist: GLU 100 μM, NMDA 30 μM plus 10 μM glycine, APB 50 μM, 2 ng RNA, 3 days
kainate receptor = format: cell-based, rat
Protocol: A directional cDNA library (λZAPII RTB1; complexity: 8×10^5 elements), consisting of 18 independent sublibraries of 44,000 clones each, was constructed from this poly(A)^+ RNA using the bacteriophage expression vector λZAPII. A pool of in vitro transcripts, comprised of transcripts made separately from all 18 amplified sublibraries, was injected into oocytes. […]. No responses to NMDA or quisqualate were detected. […]. Subsequently, pools of 44,000 clones (=the single sublibraries), 4,000, 400 and 40 clones were tested. In each of these tests at least one pool responded to KA.

GluR2 = settings: 100 μM KA
[1] = test system: GluR1, GluR2, GluR3, GluR4 and GluR5; format: cell-based, rat; settings: summary statement
[2] = QUIS 10 μM, AMPA 50 μM, normalized to 100 mM KA, -70 mV

| Compound | response to agonist (GluR3; QUIS 10 μM, AMPA 50 μM, -70 mV) | Emax at 50 µM (GluR3; read-out: response as % of the KA response) | response to the AMPA solution used in the GluR6 experiment (hippocampal mRNA) | response to the AMPA solution used in the GluR6 experiment (GluR1) | response to agonist (GluR1; QUIS 10 μM, AMPA 50 μM, -70 mV) | Emax at 50 µM (GluR1; read-out: response as % of the maximal KA response) | depolarizations in voltage recordings (kainate receptor; 100 μM kainate, 10 days after injection) | depolarization in response to bath application (GluR2) | Compound Plus Kainate (%): % of the response seen with 30 μM kainate alone (GluR1; test compounds 1 mM plus 30 μM kainate, -70 mV, peak currents, average of 3 oocytes ± SEM) | Compound Alone (%): % of the response evoked by 30 μM kainate immediately before drug application (GluR1; test compounds 1 mM, kainate 30 μM, -70 mV, peak currents, average of 3 oocytes ± SEM) | response as % of the KA response (GluR3; [2]) | responses detected (kainate receptor) | activation of homomeric receptor ion-channel complexes [1] | response as % of the maximal KA response (GluR1; [2]) |
| --- | --- | --- | --- | --- | --- | --- | --- | --- | --- | --- | --- | --- | --- | --- |
| Cc1onc(O)c1CC(N)C(=O)O (stereo not drawn) [AMPA, α-amino-3-hydroxy-5-methyl-isoxazole-4-propionic acid] | also respond | ~10% | did evoke responses | did evoke responses | also respond | 35 to 40% |  |  |  |  |  |  |  |  |
| C=C(C)[C@H]1CN[C@H](C(=O)O)[C@H]1CC(=O)O [kainate, kainic acid] |  |  |  |  |  |  | 1-3 mV | depolarize | 100.0% | 100.0% |  |  |  |  |
| N[C@@H](Cn1oc(=O)[nH]c1=O)C(=O)O [quisqualate, quisqualic acid] | also respond |  |  |  | also respond |  |  |  |  |  | about 10% | No responses | activated by | 35-40% |
